Data: patent US4977267A, “Intermediates for pyridyloxy compounds having utility as anti-peptic ulcer agents” (Fujirebio Kabushiki Kaisha, priority 1987, dated 1990)

Chains of the proteins cited; added tags and fusions are not shown.
UniProt P47747, whole entry: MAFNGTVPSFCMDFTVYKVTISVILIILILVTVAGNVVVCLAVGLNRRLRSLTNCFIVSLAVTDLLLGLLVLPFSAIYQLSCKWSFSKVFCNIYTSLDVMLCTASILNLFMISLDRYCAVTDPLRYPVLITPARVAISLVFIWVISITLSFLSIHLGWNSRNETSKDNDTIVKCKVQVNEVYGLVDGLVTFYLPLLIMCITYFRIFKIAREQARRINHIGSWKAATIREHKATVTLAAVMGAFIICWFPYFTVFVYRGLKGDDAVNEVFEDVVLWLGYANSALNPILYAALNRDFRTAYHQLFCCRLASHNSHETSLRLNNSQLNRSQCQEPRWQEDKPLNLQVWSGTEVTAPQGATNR

Biological target: T1, histamine H2 receptor (Cavia porcellus, UniProt P47747)
T1 construct: the right atrium was dissected from the hearts; from tissue; host or cells: isolated right atrium of male Hartley-strain guinea pigs
Experiment: Test on histamine H2 receptor antagonizing activity (isolated right atrium)
Design: species or system Hartley-strain guinea pigs
Conditions: guinea pig right atrium, heart rate; histamine dose-response; test compound 1×10^-6, 1×10^-7 M, 10 minutes; Van Rossum method; read-out: pA2 (converted)
Method: Test on histamine H2 receptor antagonizing activity
Hartley-strain guinea pigs (male 300 to 350 g) were stunned with a blow to the head. The heart was removed, and the right atrium was dissected from the hearts in the Krebs' solution bubbled with a […] was suspended in an Organ bath filled with the Krebs' solution kept at 32° C. The gaseous mixture was passed through the Organ bath, and a diastolic tension was adjusted to 1 g. The contraction of the atrium was recorded by a force displacement transducer, and the heart rate was measured by interlocking a heart rate meter to the transducer.
Histamine (used in the form of dihydrochloride; the same hereinafter) was added to the Organ bath cumulatively in a concentration of 1×10^-8 M to 3×10^-5 M. Thus, the dose-response curve of histamine was obtained. The Organ bath was washed several times, and each of the test compounds (1×10^-6, 1×10^-7 M) was added to the Organ bath, and a dose-response curve of histamine in the presence of the test compound was obtained 10 minutes later.
The pA2 value of each of the test compound was determined from the first histamine dose-response curve and the histamine dose-response curve obtained in the presence of the test compounds by the method of J. M. Van Rossum (Arch. Int. Pharmacodyn. Ther., 143-299, 1963).

For `CN/C(=N/CCSCc1nc[nH]c1C)NC#N` [Cimetidine, cimetidine, reference compound], the Kb was 316 nM.
